Only a part is listed here, and it is no random draw. Calls of active or inactive are those of the source.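 The calls were made as follows: active = inhibition above 20% in each of the two 10-compound mixture wells holding the compound; inactive = the rest.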
Molecular target: Complement C1s subcomponent (Homo sapiens) (UniProt P09871)
Experiment: human C1s inhibition by compound pools – biochemical, 10-compound mixtures, primary screen (AID 538);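 also: 0% = enzyme wells lacking compound mixture and 100% = no-enzyme blank wells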
Settings: purified C1s, fluorogenic AMC substrate, pooled mixtures; screened at 5 µM (by protocol)

Protein sequences, listed by entry. Tags and fused reporters are not part of them. Residues count along the entry.
UniProt P09871, 16-437 limits assumed: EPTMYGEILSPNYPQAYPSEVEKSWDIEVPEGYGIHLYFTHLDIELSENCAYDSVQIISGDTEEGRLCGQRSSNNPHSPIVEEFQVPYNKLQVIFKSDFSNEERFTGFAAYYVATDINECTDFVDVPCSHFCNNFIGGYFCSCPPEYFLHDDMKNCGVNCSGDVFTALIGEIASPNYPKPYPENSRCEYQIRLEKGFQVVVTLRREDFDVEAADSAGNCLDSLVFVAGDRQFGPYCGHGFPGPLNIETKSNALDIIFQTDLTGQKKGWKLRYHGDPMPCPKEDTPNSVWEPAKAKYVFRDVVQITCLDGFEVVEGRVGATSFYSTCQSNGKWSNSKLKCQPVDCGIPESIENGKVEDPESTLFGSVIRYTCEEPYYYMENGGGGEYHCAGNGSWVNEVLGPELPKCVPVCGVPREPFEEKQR
UniProt P09871, 438-688 limits assumed: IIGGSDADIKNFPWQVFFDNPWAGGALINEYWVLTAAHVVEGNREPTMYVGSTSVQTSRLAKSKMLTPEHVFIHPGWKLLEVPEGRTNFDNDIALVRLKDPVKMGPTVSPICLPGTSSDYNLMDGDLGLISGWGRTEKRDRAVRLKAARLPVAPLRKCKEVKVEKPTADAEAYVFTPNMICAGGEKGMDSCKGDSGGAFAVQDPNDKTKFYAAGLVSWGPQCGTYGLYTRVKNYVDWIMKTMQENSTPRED

Row | SMILES | mean inhibition % of two 10-compound mixtures (stronger effect = higher value)
1 | CP(=O)(Nc1ccc2c(c1)OCCO2)Oc1ccccc1 (stereo not drawn) | inactive: 7.38%
2 | Cc1ccccc1NP(C)(=O)Nc1ccccc1C | inactive: -3.52%
3 | CCOP(C)(=S)SCC(=O)NC(C)(CC)C(=O)O (stereo not drawn) | inactive: -0.06%
4 | CN(C)CCOC(=O)C(O)(c1ccccc1)C1CCCCC1 (stereo not drawn) | inactive: -5.05%
5 | CP(=O)(Nc1ccccc1F)Oc1ccccc1 (stereo not drawn) | inactive: 13.2%
6 | CP(=O)(Nc1ccccn1)Oc1ccccc1 (stereo not drawn) | inactive: 8.76%
7 | Cc1nc2ccc3ccccc3c2o1.O=[N+]([O-])c1cc([N+](=O)[O-])c(O)c([N+](=O)[O-])c1 | inactive: -21.1%
8 | COc1ccccc1OP(C)(=O)Nc1ccc(C)c(C)c1 (stereo not drawn) | inactive: 11%
9 | CCN(CC)CC(O)COC(=O)C(O)(c1ccccc1)C1CCCCC1 (stereo not drawn) | inactive: -28.9%
10 | COc1ccccc1OP(C)(=O)Nc1c(C)n(C)n(-c2ccccc2)c1=O (stereo not drawn) | inactive: -24.4%
11 | CP(=O)(Oc1ccccc1)N1CCOC1=O (stereo not drawn) | inactive: -19.2%
12 | CCOP(C)(=S)SCC(=O)NC(C)C(=O)O (stereo not drawn) | inactive: -16.2%
13 | CP(=O)(NC(=O)Nc1ccccc1)Oc1ccccc1 (stereo not drawn) | inactive: -7.62%
14 | CP(=S)(Nn1cnnc1)Oc1ccccc1 (stereo not drawn) | inactive: 2.06%
15 | Cc1ccc(NP(C)(=O)Oc2ccccc2)c(C)c1 (stereo not drawn) | inactive: -0.575%
16 | COc1ccccc1OP(C)(=O)Nc1ccc(C)cc1 (stereo not drawn) | inactive: 1.35%
17 | Cc1ccc(C)c(NP(C)(=O)Oc2ccccc2)c1 (stereo not drawn) | inactive: -3.23%
18 | Cc1nc2ccc3ccccc3c2s1.O=[N+]([O-])c1cc([N+](=O)[O-])c(O)c([N+](=O)[O-])c1 | inactive: 18.5%

From PubChem BioAssay AID538 (PCMD, 2006)
